In test [1] the target is T1, Tyrosine-protein kinase BTK (Homo sapiens, UniProt Q06187). The test can be described thus: Reversible inhibition of full length recombinant human N-terminal His tagged […] expressed in baculovirus infected Sf9 insect cells using poly (Glu,Tyr)4:1 as substrate pretreated for 2 to 60 mins followed by substrate addition after 1 hr by ADP-Glo luminescence assay.
In test [2] the target is T1, Tyrosine-protein kinase BTK. Kind of test: Inhibition of full length recombinant human N-terminal His tagged […] expressed in baculovirus infected Sf9 insect cells using poly (Glu,Tyr)4:1 as substrate pretreated for 60 mins followed by substrate addition after 1 hr by ADP-Glo luminescence assay.

Sequences of proteins named here, by UniProt entry; tags and fusion partners are left off. A change or cut given only in a name is not applied to a line headed by its entry.
UniProt Q06187: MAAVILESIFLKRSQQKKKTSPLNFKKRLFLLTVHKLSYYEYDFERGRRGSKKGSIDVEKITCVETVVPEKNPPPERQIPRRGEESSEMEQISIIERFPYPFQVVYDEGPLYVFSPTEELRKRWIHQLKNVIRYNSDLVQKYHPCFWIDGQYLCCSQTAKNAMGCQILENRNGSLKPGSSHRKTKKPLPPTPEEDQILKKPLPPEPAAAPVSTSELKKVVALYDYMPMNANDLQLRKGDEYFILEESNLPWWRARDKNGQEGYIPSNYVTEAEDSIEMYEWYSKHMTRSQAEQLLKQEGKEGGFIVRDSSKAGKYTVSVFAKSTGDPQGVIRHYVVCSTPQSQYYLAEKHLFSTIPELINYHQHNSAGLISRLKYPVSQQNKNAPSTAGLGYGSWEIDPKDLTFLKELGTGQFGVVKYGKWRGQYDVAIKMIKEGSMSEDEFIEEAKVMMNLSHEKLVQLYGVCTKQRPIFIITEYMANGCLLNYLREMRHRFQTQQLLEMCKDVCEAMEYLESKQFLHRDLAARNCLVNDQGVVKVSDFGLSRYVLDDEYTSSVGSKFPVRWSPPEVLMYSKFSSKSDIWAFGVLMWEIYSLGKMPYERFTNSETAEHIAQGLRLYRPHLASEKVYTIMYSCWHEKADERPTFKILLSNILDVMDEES

Turning to `C=CC(=O)Nc1cccc(Nc2nc(Nc3ccc(Oc4ccnc(C(=O)NC)c4)cc3)ncc2F)c1`, in test [1], the Ki came to 209 nM. Besides, the IC50 in test [2] came out at 9.5 nM.
Turning to `C=CC(=O)N1CCc2ccc(-n3c(=O)ccc4cnc5ccc(-c6cnn(C)c6)cc5c43)cc21`, the Ki in test [1] stood at 14.2 nM. Moreover, the IC50 in test [2] is 12 nM.

One may read the Ki as the equilibrium dissociation constant of an inhibitor or competing ligand from its target. What is called IC50 is the concentration that gives 50% inhibition.

Source of the values: ChEMBL document CHEMBL4024706 (Eur J Med Chem, 2017).
